Test results as given in BindingDB's records for doi:10.1016/S0002-8703(03)00398-3 (University of Maryland Hospital, 2003).

The chains behind the UniProt entries cited, without tags or fusion partners.
UniProt P23219, whole entry: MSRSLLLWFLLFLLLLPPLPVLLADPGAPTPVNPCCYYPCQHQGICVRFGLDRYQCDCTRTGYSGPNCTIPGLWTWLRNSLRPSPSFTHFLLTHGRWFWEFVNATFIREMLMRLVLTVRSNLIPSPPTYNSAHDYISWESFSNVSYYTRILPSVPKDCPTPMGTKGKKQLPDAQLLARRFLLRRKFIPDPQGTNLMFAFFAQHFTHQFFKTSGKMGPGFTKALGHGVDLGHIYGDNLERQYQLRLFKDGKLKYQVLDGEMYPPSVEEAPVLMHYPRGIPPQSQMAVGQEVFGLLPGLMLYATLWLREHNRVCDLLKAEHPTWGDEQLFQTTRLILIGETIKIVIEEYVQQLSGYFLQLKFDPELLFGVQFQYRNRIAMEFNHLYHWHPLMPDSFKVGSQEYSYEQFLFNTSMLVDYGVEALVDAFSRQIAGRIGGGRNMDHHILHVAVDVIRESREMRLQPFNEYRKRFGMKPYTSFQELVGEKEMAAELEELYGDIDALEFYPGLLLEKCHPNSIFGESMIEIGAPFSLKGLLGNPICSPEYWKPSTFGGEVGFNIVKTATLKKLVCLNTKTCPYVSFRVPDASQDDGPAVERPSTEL

Target: Prostaglandin G/H synthase 1 (Homo sapiens, UniProt P23219)

Ki: 700 nM
SMILES: Cc1onc(-c2ccccc2)c1-c1ccc(S(N)(=O)=O)cc1
